# Test results as given in patent publication US11827580B2, “Aminotetraline activators of serotonin receptors” (ATAI Life Sciences AG, priority 2021, dated 2023).
# Chains of the proteins cited; added tags and fusions are not shown.
# UniProt P28223, whole entry: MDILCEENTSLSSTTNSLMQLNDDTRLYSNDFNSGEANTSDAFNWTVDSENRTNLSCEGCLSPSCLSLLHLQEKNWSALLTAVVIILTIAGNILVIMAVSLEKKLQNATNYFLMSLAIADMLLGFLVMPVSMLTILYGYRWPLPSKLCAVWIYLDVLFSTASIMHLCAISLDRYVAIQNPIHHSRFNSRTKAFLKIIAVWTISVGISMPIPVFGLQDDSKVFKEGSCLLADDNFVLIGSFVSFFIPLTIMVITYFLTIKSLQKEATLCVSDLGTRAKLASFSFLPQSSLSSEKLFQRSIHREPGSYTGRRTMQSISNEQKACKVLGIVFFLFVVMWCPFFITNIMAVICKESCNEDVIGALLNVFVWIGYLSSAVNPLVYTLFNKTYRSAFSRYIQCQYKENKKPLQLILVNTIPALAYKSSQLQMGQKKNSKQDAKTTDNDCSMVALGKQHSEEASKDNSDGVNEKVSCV
# Where a name gives a salt, the structure may show the parent alone.
# Target: 5HT2A (Homo sapiens, UniProt P28223)
# Assay: 5HT2A activation (%) max at two concentrations (Table 1)
# Assay type: cell-based
smiles,measurement,setting,value
"COc1ccc(OC)c2c1CCC(N)C2 (centres unmarked) [Compound 1-3, 5,8-dimethoxy-1,2,3,4-tetrahydronaphthalen-2-amine hydrochloride]",5HT2A activation (%) max @ 03 μM,03 μM [sic],12.1%
same,5HT2A activation (%) max @ 30 μM,30 μM (first value of the cell),67.1%
